## Apparent affinities of Ab-91 variants for a coronavirus HR2 peptide

Values reported by Engelhart et al. 2022, doi:10.1038/s41597-022-01779-4 (FLAb copy).

The target is the same throughout: PDVDLGDISGINAS, from the HR2 region of SARS-CoV-2 spike.

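The parent was found by panning a naive human phage display library on the peptide. Library AAYL51 holds single substitutions and randomly drawn double and triple substitutions in the CDRs. The assay is AlphaSeq: two haploid yeast populations carry antibody and antigen on their surface. Binding brings cells together so that they mate, and sequencing counts the barcode pairs among the diploids. Read counts were normalised to the haploid input and turned into Kd by a linear fit to BCL2-family pairs of known affinity, for each replicate. The assay was run in three technical replicates.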

Ab-91 is the parent antibody, in scFv form: VL, then the linker GGGGSGGGGSGGGGS, then VH. The light chain is unchanged in all variants.
VL: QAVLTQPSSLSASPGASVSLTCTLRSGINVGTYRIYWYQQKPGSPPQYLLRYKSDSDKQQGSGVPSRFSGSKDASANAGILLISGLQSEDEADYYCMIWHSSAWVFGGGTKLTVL
VH: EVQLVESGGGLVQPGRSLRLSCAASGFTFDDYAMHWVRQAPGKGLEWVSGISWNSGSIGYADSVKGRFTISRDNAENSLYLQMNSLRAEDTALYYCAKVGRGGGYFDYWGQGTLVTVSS

Each variant is given by its three heavy chain CDRs, as the data file delimits them; those of the parent are GFTFDDYAMH, GISWNSGSIGYADSVK, VGRGGGYFDY.
The read-out is the apparent dissociation constant on a log10 scale (nM): the lower, the stronger.
Averages over replicates are reported, and they cover detected replicates only.
"n.d." marks a missing value. The strain was present, yet no cells mated with the target were sequenced in that replicate, which points to weak or no binding.
Background: pairings of library AAYL51 with three empty control strains gave a value in 21% of cases (median 4.54, 5th percentile 3.26). Values in that range, when seen in few replicates, are hard to tell from nonspecific mating. For each scFv, signals with the empty controls are counted beside the result, with their mean in brackets.
Parent in this assay: reference entry 1.86, copy in this library 0.88.

CDR-H1	CDR-H2	CDR-H3	log10 Kd, replicates	mean, log10 nM	empty controls
GFTFDDYAMH	GISSNSGSYGYADSVK	VGRGWGYFDY	n.d. / n.d. / n.d.	n.d.	2/9 (3.70)
MFTFDDYAMH	GISWNSGSIGYADSTK	VGFGGGYFDY	n.d. / 6.25 / 5.62	5.93	5/9 (5.24)
PFTFDDYAMH	GISWNSGSMGYAWSVK	VGRGGGYFDY	n.d. / n.d. / n.d.	n.d.	0/9
GFTFDDYYMH	GISWNSGSIGYADSVL	VGRGGIYFDY	4.24 / 5.28 / 5.17	4.90	5/9 (4.64)
GFTFDDYAMH	GISWNSGSIGHADSVK	VSRGVGYFDY	n.d. / 3.25 / n.d.	3.25	0/9
GFFFDDYPMH	GISWNSGSNGYADSVK	VGRGGGYFDY	4.92 / 3.55 / 4.40	4.29	2/9 (4.48)
GFTFDDYAMH	GISWNSLSITYADSVK	VGRGGGYFDY	4.17 / 3.18 / n.d.	3.67	0/9
GFTFDDYAMH	GIHWNSGSIGYAFSVK	VGRGGGYFDV	n.d. / 4.63 / 3.83	4.23	1/9 (4.43)
GFTFDDYYMH	GISWNSGSENYADSVK	VGRGGGYFDY	n.d. / n.d. / n.d.	n.d.	2/9 (4.68)
GFTFDDYAMH	GISWNSGSIGYADSVK	VGLGGGYFDY	1.97 / 1.86 / 1.86	1.90	7/9 (5.22)
GFTFDDYFMH	GISWNSGSIGYADSVK	VGVGGGYFDY	4.88 / n.d. / 4.75	4.82	3/9 (4.61)
GFTTDDYAMH	GISWNSGSIGYADSVT	VGRGGGYNDY	1.08 / 1.10 / 0.57	0.92	1/9 (3.28)
GFTFDDYANH	GISWNSGSIHYADWVK	VGRGGGYFDY	n.d. / n.d. / n.d.	n.d.	1/9 (4.04)
GFTFDYYAMH	GISWNSGSIGYADSVW	VGRGGGFFDY	1.83 / 1.69 / 1.19	1.57	4/9 (4.70)
GFTSDDYAMH	GISWNSGSIGYADCVK	VGRGGGYFDQ	n.d. / n.d. / 4.10	4.10	1/9 (4.02)
GFTFDDYAMH	GRSWNSGSIGYADNVK	VGRGGGFFDY	n.d. / n.d. / n.d.	n.d.	2/9 (3.61)
GFTFADYAMH	GISWNSGSIGYADSVK	VGRGTGYFFY	4.87 / n.d. / n.d.	4.87	1/9 (5.71)
GFAFDDYAMH	GISWNSGSIQYYDSVK	VGRGGGYFDY	n.d. / n.d. / n.d.	n.d.	0/9
GFTFDDYAMH	GISWNSGSIGYADSVK	VGRGMGYFDY	5.16 / n.d. / n.d.	5.16	2/9 (4.83)
GFTFDDNAMG	GISWNSSSIGYADSVK	VGRGGGYFDY	n.d. / n.d. / n.d.	n.d.	0/9
GFWCDDYAMH	GISWNSGSIGDADSVK	VGRGGGYFDY	5.06 / n.d. / n.d.	5.06	1/9 (4.55)
GFTFDDAAMH	GIGWNSGSIGYADSVK	VGRGEGYFDY	n.d. / n.d. / n.d.	n.d.	1/9 (5.10)
GFTFDDYALH	GISWNSGSIGYADSVK	VGRLGGYLDY	n.d. / n.d. / n.d.	n.d.	0/9
GFTFDDYGMF	GFSWNSGSIGYADSVK	VGRGGGYFDY	4.38 / n.d. / n.d.	4.38	1/9 (6.00)
RFTFDDYAMH	GISWNSGSIGYPDSVK	VGRYGGYFDY	6.61 / 6.76 / 5.07	6.15	5/9 (4.78)
GFTFNDYAMH	GISNNSGSIGYADSVK	VGRGGGYGDY	3.96 / 3.61 / 3.93	3.83	8/9 (5.03)
GFTLDDYAMH	GISWNSGSIGYADVVG	VGRGGGYFDY	3.11 / n.d. / 3.78	3.45	0/9
GFTFDDYAMH	GRSWNSGSIGVATSVK	VGRGGGYFDY	4.12 / n.d. / 4.54	4.33	3/9 (3.66)
GFGFDDYAMH	GISWNSGSIGYADSVK	YGRTGGYFDY	n.d. / 5.44 / 4.61	5.02	0/9
GFTPDDYAMH	GISWNSGSIGYADSNT	VGRGGGYFDY	n.d. / 3.92 / n.d.	3.92	1/9 (4.24)
YFTFDLYAMH	GISWNSGSKGYADSVK	VGRGGGYFDY	n.d. / n.d. / n.d.	n.d.	2/9 (3.60)
GFRFDDYAMH	GISWNSGSPNYADSVK	VGRGGGYFDY	4.80 / n.d. / 4.64	4.72	1/9 (4.64)
GFFFDDYAMH	GISWNQGSIGYADVVK	VGRGGGYFDY	n.d. / n.d. / n.d.	n.d.	1/9 (5.39)
QFTFDDYAMH	GISWNSGSIGYADSVY	VHRGGGYFDY	5.77 / 4.43 / 3.48	4.56	1/9 (4.80)
VFTFDDVAMH	GISWNFGSIGYADSVK	VGRGGGYFDY	n.d. / n.d. / n.d.	n.d.	0/9
EFTFDDAAMH	GISWTSGSIGYADSVK	VGRGGGYFDY	n.d. / n.d. / n.d.	n.d.	1/9 (5.22)
GFTFDDFAMH	GISWNTHSIGYADSVK	VGRGGGYFDY	3.88 / n.d. / 3.99	3.93	1/9 (3.90)
GFTFDDYAMM	GISWNSGSIGYADSVK	VGRGEGYFDY	3.97 / 4.55 / 5.51	4.68	3/9 (4.43)
GFTFDDYTDH	GISWNSGSIGYADSVK	VGRGGGYFDY	n.d. / n.d. / n.d.	n.d.	2/9 (4.54)
GFRFDDYAMH	GISWNSGSIGYADSVK	VGCGGGYFDY	4.22 / 6.07 / 4.69	4.99	9/9 (4.45)
GFTFDRYAMH	GISWNSGSIGYADSDK	VGYGGGYFDY	n.d. / n.d. / n.d.	n.d.	0/9
GFTFDDYAMH	GISWNSGPIGYADSVK	VGLGEGYFDY	n.d. / n.d. / n.d.	n.d.	1/9 (2.39)
GFTMDDYAMI	GISWNSGSIGYADSVM	VGRGGGYFDY	2.67 / 2.69 / 2.40	2.58	4/9 (5.26)
GFTFDDYAMH	GISWNSGSIGINDSVK	VGRDGGYFDY	3.06 / 2.30 / 3.86	3.07	1/9 (3.15)
GFTFDDYAMH	GISWNSGSIGYADSVK	VGRGGKCFDY	n.d. / n.d. / n.d.	n.d.	0/9
WFTFDDYAMH	GISWNSGSIAYADSVK	VGPGGGYFDY	n.d. / n.d. / n.d.	n.d.	1/9 (3.90)
GFTFDDYPMH	GISWNSGSIGYAWSVK	VGVGGGYFDY	n.d. / n.d. / n.d.	n.d.	0/9
GFTFTDYAMH	DISWNSGSIGYADSVK	VGSGGGYFDY	5.42 / 5.97 / n.d.	5.69	3/9 (4.11)
GFTFDDYAKH	GISWNSGSCGYADSVK	KGRGGGYFDY	n.d. / n.d. / n.d.	n.d.	5/9 (4.51)
GFTFDDYAMH	GISWNPGSIGMADSVK	VGRGGGYEDY	n.d. / n.d. / n.d.	n.d.	0/9

The closing 6 entries, repeated:

CDR-H1,CDR-H2,CDR-H3,"log10 Kd, replicates","mean, log10 nM",empty controls
GFTFDDYAMH,GISWNSGSIGYADSVK,VGRGGKCFDY,n.d. / n.d. / n.d.,n.d.,0/9
WFTFDDYAMH,GISWNSGSIAYADSVK,VGPGGGYFDY,n.d. / n.d. / n.d.,n.d.,1/9 (3.90)
GFTFDDYPMH,GISWNSGSIGYAWSVK,VGVGGGYFDY,n.d. / n.d. / n.d.,n.d.,0/9
GFTFTDYAMH,DISWNSGSIGYADSVK,VGSGGGYFDY,5.42 / 5.97 / n.d.,5.69,3/9 (4.11)
GFTFDDYAKH,GISWNSGSCGYADSVK,KGRGGGYFDY,n.d. / n.d. / n.d.,n.d.,5/9 (4.51)
GFTFDDYAMH,GISWNPGSIGMADSVK,VGRGGGYEDY,n.d. / n.d. / n.d.,n.d.,0/9